Reference: publication PMC4301998 (Bioorganic & medicinal chemistry, 2014)

Tested on: HepG2 cells
Conditions: RIF, concentration not given, 24 hr, CellTiter-Glo

Q: With `CO[C@H]1/C=C/O[C@@]2(C)Oc3c(C)c(O)c4c(O)c(c(/C=N/N5CCN(C)CC5)c(O)c4c3C2=O)NC(=O)/C(C)=C\C=C\[C@H](C)[C@H](O)[C@@H](C)[C@@H](O)[C@@H](C)[C@H](OC(C)=O)[C@@H]1C` [rifampicin, reference compound] as the compound, how does the “HepG2 cell viability (cytotoxicity)” value read?
A: Its value is “marginally cytotoxic”.
